The assay deals with Nitric oxide synthase 1 (Homo sapiens, UniProt P29475). Description: Inhibitory constant for the inhibition of human Neuronal nitric oxide synthase.

Amino acid sequences for entries named in this document (tags omitted).
UniProt P29475, whole entry: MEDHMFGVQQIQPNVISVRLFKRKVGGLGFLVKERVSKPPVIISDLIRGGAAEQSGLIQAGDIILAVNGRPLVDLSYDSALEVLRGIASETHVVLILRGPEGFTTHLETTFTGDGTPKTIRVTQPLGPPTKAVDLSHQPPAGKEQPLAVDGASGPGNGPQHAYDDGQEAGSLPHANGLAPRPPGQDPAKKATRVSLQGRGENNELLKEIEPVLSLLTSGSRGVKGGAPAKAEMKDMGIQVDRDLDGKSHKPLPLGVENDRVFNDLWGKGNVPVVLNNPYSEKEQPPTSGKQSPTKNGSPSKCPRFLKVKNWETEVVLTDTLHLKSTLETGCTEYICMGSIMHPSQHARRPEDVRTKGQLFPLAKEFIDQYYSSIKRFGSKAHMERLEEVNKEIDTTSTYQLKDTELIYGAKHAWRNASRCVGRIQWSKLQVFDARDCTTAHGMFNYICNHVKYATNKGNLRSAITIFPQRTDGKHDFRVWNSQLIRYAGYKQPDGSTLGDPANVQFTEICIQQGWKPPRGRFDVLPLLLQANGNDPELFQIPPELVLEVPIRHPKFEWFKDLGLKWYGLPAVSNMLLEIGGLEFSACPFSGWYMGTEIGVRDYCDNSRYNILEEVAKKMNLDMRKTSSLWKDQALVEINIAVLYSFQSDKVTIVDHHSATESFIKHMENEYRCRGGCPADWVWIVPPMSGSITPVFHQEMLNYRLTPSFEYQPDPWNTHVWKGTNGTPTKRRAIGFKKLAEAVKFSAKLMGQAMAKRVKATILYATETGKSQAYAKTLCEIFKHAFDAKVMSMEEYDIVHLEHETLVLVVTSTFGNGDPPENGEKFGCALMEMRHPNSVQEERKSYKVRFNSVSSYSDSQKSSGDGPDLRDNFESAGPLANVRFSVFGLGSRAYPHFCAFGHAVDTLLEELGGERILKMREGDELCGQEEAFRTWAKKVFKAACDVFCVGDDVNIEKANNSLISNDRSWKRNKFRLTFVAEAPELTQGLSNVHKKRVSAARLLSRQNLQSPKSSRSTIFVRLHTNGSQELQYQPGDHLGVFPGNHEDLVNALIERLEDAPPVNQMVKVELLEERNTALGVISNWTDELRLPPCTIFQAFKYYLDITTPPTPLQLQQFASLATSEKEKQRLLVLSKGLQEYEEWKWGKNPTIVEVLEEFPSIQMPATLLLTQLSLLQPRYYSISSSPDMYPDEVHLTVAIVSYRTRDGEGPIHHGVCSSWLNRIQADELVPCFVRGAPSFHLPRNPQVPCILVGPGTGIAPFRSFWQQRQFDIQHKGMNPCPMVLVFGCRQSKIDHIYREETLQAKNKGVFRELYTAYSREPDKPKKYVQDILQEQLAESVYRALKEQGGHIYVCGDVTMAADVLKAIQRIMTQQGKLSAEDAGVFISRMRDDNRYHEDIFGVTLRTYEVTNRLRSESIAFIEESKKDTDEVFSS

`CC(=N)NCCC[C@H](N)C(=O)O` [L-NIO] had a Ki of 0.23 µM.

For the origin of these results see ChEMBL document CHEMBL1130474, “Conformationally restricted arginine analogues as inhibitors of human nitric oxide synthase” (Bioorg Med Chem Lett, 1997).
